The source of these data is ChEMBL document CHEMBL1134162 (Bioorg Med Chem Lett, 2001).

Sequences of proteins named here, by UniProt entry; tags and fusion partners are left off.
UniProt P33535, whole entry: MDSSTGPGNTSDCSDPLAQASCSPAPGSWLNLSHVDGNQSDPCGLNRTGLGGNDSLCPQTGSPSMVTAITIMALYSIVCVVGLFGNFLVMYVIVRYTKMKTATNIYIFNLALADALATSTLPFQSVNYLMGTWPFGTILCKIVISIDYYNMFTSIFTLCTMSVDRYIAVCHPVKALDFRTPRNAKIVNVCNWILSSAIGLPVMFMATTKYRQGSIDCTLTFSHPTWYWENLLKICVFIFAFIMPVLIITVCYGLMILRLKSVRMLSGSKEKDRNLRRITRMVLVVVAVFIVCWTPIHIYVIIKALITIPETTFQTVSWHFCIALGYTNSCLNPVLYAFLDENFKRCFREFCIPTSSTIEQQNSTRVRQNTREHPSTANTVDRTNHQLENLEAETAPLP

This assay addresses Mu-type opioid receptor (Rattus norvegicus, UniProt P33535). The experiment in a line: Binding affinity was determined towards Opioid receptor mu 1 in rat brain synaptosomes using [3H]DAMGO as radioligand.

On to `Cc1cccc(C)c1C[C@H](NC(=O)CNC(=O)CNC(=O)[C@@H](N)Cc1ccc(O)cc1)C(=O)N[C@@H](CC(C)C)C(=O)O`, for which the affinity, expressed as Ki, was 2.51 µM.
